Molecular target: Sodium-dependent noradrenaline transporter (Homo sapiens, UniProt P23975)
Assay: Displacement of [3H]Nisoxetine from human NET at 10 uM relative to control

CN(C)CCC(c1ccc(Cl)c(Cl)c1)N1CCOCC1 (stereo unspecified)
inhibition: 83.8%
